Literature values, collected in US20110217262A1, “Treatment of Ocular Surface Disorders by Increasing Conjunctival Vascular Permeability” (priority 2010, published 2011).

What was measured:
[1] = test system: human corneal and conjunctival cells lines; details: cited from earlier work
[2] = test system: corneal erosions in a rat model; details: cited from earlier work

Albumin: highly stable protein found at a much higher concentration in serum than in tears
apoptosis of corneal and conjunctival cells [1]: inhibit apoptosis
healing of corneal erosions [2]: promote healing of corneal erosions
